Bounds are passed on as bounds.

The chains behind the UniProt entries cited, without tags or fusion partners. Residues count along the entry.
UniProt Q13224, 27-1484 limits assumed: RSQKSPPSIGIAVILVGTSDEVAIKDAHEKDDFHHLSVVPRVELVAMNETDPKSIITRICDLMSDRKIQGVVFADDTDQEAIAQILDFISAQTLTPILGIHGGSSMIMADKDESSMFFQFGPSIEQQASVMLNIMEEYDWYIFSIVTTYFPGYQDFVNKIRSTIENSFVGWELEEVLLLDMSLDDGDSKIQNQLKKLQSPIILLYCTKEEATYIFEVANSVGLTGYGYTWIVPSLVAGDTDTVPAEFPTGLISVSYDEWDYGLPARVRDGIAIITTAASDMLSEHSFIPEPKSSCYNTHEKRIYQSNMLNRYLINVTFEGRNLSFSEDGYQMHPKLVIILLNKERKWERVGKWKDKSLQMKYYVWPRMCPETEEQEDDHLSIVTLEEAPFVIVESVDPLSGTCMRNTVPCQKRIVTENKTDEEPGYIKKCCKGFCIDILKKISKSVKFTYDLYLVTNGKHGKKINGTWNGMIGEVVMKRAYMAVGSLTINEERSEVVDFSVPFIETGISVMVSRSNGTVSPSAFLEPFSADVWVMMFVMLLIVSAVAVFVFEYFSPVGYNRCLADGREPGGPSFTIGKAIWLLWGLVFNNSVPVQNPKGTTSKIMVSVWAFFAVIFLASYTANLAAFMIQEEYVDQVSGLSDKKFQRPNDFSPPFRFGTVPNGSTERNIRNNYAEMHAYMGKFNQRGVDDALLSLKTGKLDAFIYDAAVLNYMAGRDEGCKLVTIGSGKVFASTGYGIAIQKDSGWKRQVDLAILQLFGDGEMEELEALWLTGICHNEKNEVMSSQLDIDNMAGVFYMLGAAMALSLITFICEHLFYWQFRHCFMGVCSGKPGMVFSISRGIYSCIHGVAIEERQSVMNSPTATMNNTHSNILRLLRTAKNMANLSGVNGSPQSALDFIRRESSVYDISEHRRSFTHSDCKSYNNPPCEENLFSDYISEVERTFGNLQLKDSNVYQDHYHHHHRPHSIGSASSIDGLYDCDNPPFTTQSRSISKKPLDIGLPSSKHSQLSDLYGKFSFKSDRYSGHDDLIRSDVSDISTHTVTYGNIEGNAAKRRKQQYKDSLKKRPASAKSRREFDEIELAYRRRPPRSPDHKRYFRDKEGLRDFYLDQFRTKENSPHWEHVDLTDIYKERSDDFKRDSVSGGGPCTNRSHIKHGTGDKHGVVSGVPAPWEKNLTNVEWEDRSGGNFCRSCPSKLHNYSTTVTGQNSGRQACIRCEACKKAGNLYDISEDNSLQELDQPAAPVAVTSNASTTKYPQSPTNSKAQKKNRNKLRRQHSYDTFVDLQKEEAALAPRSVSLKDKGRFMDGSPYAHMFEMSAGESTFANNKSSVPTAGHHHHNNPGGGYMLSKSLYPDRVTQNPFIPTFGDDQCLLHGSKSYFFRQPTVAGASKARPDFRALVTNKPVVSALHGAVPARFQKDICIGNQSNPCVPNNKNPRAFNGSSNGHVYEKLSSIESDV

Drawing on patent US8722670B2, “Selective NR2B antagonists” (Bristol-Myers Squibb Company, priority 2011, dated 2014), this text covers IC50 for 47 compounds.

The first experiment deals with hNR2B (Homo sapiens, UniProt Q13224). Kind of experiment: Electrophysiology NMDA receptor experiments: two electrode voltage-clamp in Xenopus laevis oocytes, hNR2B IC50. Conditions: read-out: Activity, hNR2B activity class, 50 μM glutamate, 30 μM glycine. A general note: Two-electrode voltage clamp is typically applied to oocytes expressing channels or transporters.
Consider `CC(Oc1ccc2[nH]c(=O)ccc2c1)c1nc(Nc2ccc(Cl)c(F)c2)no1` (racemic), for which the IC50 lay within 201 to 1000 nM.

For the compound `Clc1ccc(Nc2nnc(COc3ccc4[nH]ncc4c3)o2)cc1`, the IC50 was in the range of 201 to 1000 nM.

For the compound `CC(Oc1ccc2[nH]ncc2c1)c1nc(Nc2ccc(OC(F)F)c(Cl)c2)no1` (single isomer, unassigned) [173], the IC50 fell in the range of 201 to 1000 nM.

As for `CC(Oc1ccc2[nH]c(=O)ccc2c1)c1nc(Nc2ccc(Cl)cc2)no1` (stereo not shown), the IC50 was in the range of 1000 to 10000 nM.

`Cc1ccccc1CNc1nnc(COc2ccc3[nH]c(=O)ccc3c2)o1`: the IC50 is 1000 to 10000 nM.

With `O=c1ccc2cc(OCc3nnc(Nc4ccc5c(c4)OCCO5)o3)ccc2[nH]1`, the IC50 fell in the range of 1000 to 10000 nM.

`O=c1ccc2cc(C3CC3c3nc(Nc4ccc(OC(F)F)c(Cl)c4)no3)ccc2[nH]1` (stereo not shown): the IC50 was below 200 nM.

Consider `CC(Oc1ccc2[nH]ncc2c1)c1nc(Nc2ccc(Cl)c(Cl)c2)no1` (single isomer, unassigned) [172], for which the IC50 lay within 1000 to 10000 nM.

In the case of `Cc1ccc(Nc2noc(CCc3ccc4c(c3)C(C)(C)OC(=O)N4)n2)cc1F`, the IC50 was above 10000 nM.

On to `FC(F)Oc1ccc(Nc2noc(CCNc3ncccn3)n2)cc1Cl`, for which the IC50 lay in the range of 1000 to 10000 nM.

For the compound `CC1(C)Cc2cc(OCc3nnc(Nc4ccc(C(F)(F)F)cc4)o3)ccc2NC1=O`, the IC50 was 1000 to 10000 nM.

Turning to `CC(C)Oc1ccc(Nc2nnc(COc3ccc4[nH]c(=O)ccc4c3)o2)cc1`, the IC50 fell in the range of 201 to 1000 nM.

As for `Cc1cc(Nc2noc(C(C)Oc3ccc4[nH]ncc4c3)n2)ccc1OC(F)F` (stereo not shown), the IC50 is 1000 to 10000 nM.

In the case of `CC(Oc1ccc2[nH]c(=O)ccc2c1)c1nnc(Nc2ccc(OC(F)F)cc2)o1` (racemic), the IC50 is below 200 nM.

As to `Cc1ccc(Nc2noc(C(C)Oc3ccc4[nH]c(=O)ccc4c3)n2)cc1F` (racemic), the IC50 lay in the range of 201 to 1000 nM.

For the compound `FC(F)(F)c1n[nH]c2ccc(CCc3nc(Nc4ccc(Cl)c(Cl)c4)no3)cc12`, the IC50 is above 10000 nM.

As for `O=c1ccc2cc(OCc3nnc(NCc4ccc(C(F)(F)F)c(Cl)c4)o3)ccc2[nH]1`, the IC50 lay within 1000 to 10000 nM.

As to `O=c1ccc2cc(OCc3nnc(Nc4ccc(F)c(F)c4)o3)ccc2[nH]1`, the IC50 was in the range of 201 to 1000 nM.

For `Cc1ccc(Nc2nnc(COc3ccc4[nH]c(=O)ccc4c3)o2)cc1C`, the IC50 was in the range of 201 to 1000 nM.

Turning to `O=c1ccc2cc(OCc3nc(Nc4cccc(Cl)c4Cl)no3)ccc2[nH]1`, the IC50 was above 10000 nM.

For the compound `COc1ccc(Nc2noc(C(C)Oc3ccc4[nH]c(=O)ccc4c3)n2)cc1Cl` (stereo not shown), the IC50 is 1000 to 10000 nM.

Take `O=c1ccc2cc(OCc3nnc(Nc4ccc(OC(F)F)c(F)c4)o3)ccc2[nH]1`: the IC50 was below 200 nM.

For the compound `O=c1ccc2cc(OCc3nnc(NCc4ccc5c(c4)OCCO5)o3)ccc2[nH]1`, the IC50 lay within 201 to 1000 nM.

In the case of `CC(C)(C)c1ccc(Nc2nnc(COc3ccc4[nH]c(=O)ccc4c3)o2)cc1`, the IC50 lay within 1000 to 10000 nM.

As to `O=c1ccc2cc(OCc3nnc(Nc4ccc5c(c4)OCO5)o3)ccc2[nH]1`, the IC50 was in the range of 1000 to 10000 nM.

As to `O=c1ccc2cc(OCc3nnc(NCc4ccccc4)o3)ccc2[nH]1`, the IC50 lay in the range of 1000 to 10000 nM.

Take `CC(Oc1ccc2[nH]ncc2c1)c1nc(Nc2ccc(OC(F)F)c(Cl)c2)no1` (single isomer, unassigned) [177]: the IC50 was in the range of 1000 to 10000 nM.

Regarding `CC(Oc1ccc2[nH]c(=O)ccc2c1)c1nc(Nc2ccc(Cl)c(Cl)c2)no1` (stereo not shown), the IC50 was 201 to 1000 nM.

As for `CC(Oc1ccc2[nH]ncc2c1)c1nc(Nc2ccc(Cl)c(Cl)c2)no1` (single isomer, unassigned) [174], the IC50 is 201 to 1000 nM.

Consider `CC(Oc1ccc2[nH]ncc2c1)c1nc(Nc2ccc(Cl)c(Cl)c2)no1` (single isomer, unassigned) [175], for which the IC50 lay within 1000 to 10000 nM.

Consider `O=c1ccc2cc(OCc3nnc(NCc4ccc(F)cc4)o3)ccc2[nH]1`, for which the IC50 lay within 201 to 1000 nM.

On to `CC(Oc1ccc2[nH]ncc2c1)c1nc(Nc2ccc(OC(F)F)c(Cl)c2)no1` (single isomer, unassigned) [176], for which the IC50 was below 200 nM.

For the compound `Cc1ccccc1Nc1nnc(COc2ccc3[nH]c(=O)ccc3c2)o1`, the IC50 was above 10000 nM.

For `O=C1Cc2cc(OCc3nnc(Nc4ccc(C(F)(F)F)cc4)o3)ccc2N1`, the IC50 lay within 201 to 1000 nM.

Regarding `O=c1ccc2cc(OCc3nnc(Nc4ccc(C(F)(F)F)c(F)c4)o3)ccc2[nH]1`, the IC50 was below 200 nM.

With `CC(C)(C)c1ccc(CNc2nnc(COc3ccc4[nH]c(=O)ccc4c3)o2)cc1`, the IC50 was in the range of 1000 to 10000 nM.

In the case of `CC(Oc1ccc2[nH]c(=O)ccc2c1)c1nc(Nc2cc(Cl)cc(Cl)c2)no1` (racemic), the IC50 is above 10000 nM.

On to `O=C1CCc2cc(OCc3nnc(Nc4ccc(Cl)c(Cl)c4)o3)cc(Cl)c2N1`, for which the IC50 lay within 1000 to 10000 nM.

`O=c1ccc2cc(OCc3nnc(NCc4ccc(F)c(F)c4)o3)ccc2[nH]1`: the IC50 is below 200 nM.

For `O=c1ccc2cc(OCc3nnc(Nc4ccc(C(F)(F)F)nc4)o3)ccc2[nH]1`, the IC50 lay in the range of 1000 to 10000 nM.

As to `COc1ccc(CNc2nnc(COc3ccc4[nH]c(=O)ccc4c3)o2)cc1`, the IC50 is below 200 nM.

On to `Clc1ccc(Nc2noc(CCNc3ncccn3)n2)cc1Cl`, for which the IC50 lay within 1000 to 10000 nM.

As for `COc1ccc(Nc2nnc(COc3ccc4[nH]c(=O)ccc4c3)o2)cc1Cl`, the IC50 is below 200 nM.

Regarding `N#Cc1ccc(CNc2nnc(COc3ccc4[nH]c(=O)ccc4c3)o2)cc1`, the IC50 was 1000 to 10000 nM.

`Fc1cc(Nc2noc(CCCc3ccc4cn[nH]c4c3)n2)ccc1Cl`: the IC50 is above 10000 nM.

For the compound `COc1ccc(Nc2nnc(COc3ccc4[nH]c(=O)ccc4c3)o2)cc1`, the IC50 was 1000 to 10000 nM.

Regarding `N#Cc1ccc(Nc2nnc(COc3ccc4[nH]c(=O)ccc4c3)o2)cc1`, the IC50 is above 10000 nM.

The experiment is the same for the next values; noted with them: read-out: hNR2B IC50, voltage clamp -40 mV, 50 μM glutamate, 30 μM glycine.
Regarding `CC(Oc1ccc2[nH]ncc2c1)c1nc(Nc2ccc(OC(F)F)c(Cl)c2)no1` (single isomer, unassigned) [173], the IC50 was found to be 345 nM.

As for `O=c1ccc2cc(OCc3nnc(Nc4ccc5c(c4)OCCO5)o3)ccc2[nH]1`, the IC50 was 1010 nM.

Take `O=c1ccc2cc(OCc3nnc(Nc4ccc5c(c4)OCO5)o3)ccc2[nH]1`: the IC50 was determined as 1740 nM.

As for `O=c1ccc2cc(OCc3nnc(NCc4ccc(F)cc4)o3)ccc2[nH]1`, the IC50 worked out at 328 nM.

As for `O=C1CCc2cc(OCc3nnc(Nc4ccc(Cl)c(Cl)c4)o3)cc(Cl)c2N1`, the IC50 is 3450 nM.
